In ChEMBL document CHEMBL1133200, “Nonpeptide endothelin antagonists: from lower affinity pyrazol-5-ols to higher affinity pyrazole-5-carboxylic acids” (Bioorg Med Chem Lett, 2000) one finds IC50 data, which are given here for one compound.

Amino acid sequences for entries named in this document (tags omitted).
UniProt P26684, whole entry: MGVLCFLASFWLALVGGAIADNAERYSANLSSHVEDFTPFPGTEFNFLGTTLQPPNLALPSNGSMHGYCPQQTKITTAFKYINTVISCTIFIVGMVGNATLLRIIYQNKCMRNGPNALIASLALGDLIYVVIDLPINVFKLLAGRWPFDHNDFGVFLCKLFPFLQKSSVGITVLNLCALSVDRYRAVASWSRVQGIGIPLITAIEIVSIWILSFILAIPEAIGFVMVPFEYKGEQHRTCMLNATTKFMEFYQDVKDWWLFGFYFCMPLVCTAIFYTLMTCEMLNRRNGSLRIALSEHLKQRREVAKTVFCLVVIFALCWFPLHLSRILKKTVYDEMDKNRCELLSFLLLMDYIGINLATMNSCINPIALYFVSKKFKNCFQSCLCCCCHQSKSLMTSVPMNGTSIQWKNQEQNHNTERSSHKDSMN

For this assay, the target named is Endothelin-1 receptor (Rattus norvegicus, UniProt P26684). The assay is described as follows: In vitro inhibition of endothelin binding to endothelin A receptor in rat heart ventricles was measured using a 125-I labelled ET-1 competition assay.

In turn, `COc1cccc(Cn2[nH]c(C(F)(F)F)c(Cc3ccc4c(c3)OCO4)c2=O)c1` came in with an IC50 of 1500 nM.

A word on the IC50: it is the concentration that gives 50% inhibition.
